In US20090099157A1, “TETRAHYDRO-PYRAZOLO-PYRIDINE THIOETHER MODULATORS OF CATHEPSIN S” (priority 2007, published 2009) one finds IC50 data, which are given here for 21 molecules.

The chains behind the UniProt entries cited, without tags or fusion partners. Residues count along the entry.
UniProt P25774, 115-331: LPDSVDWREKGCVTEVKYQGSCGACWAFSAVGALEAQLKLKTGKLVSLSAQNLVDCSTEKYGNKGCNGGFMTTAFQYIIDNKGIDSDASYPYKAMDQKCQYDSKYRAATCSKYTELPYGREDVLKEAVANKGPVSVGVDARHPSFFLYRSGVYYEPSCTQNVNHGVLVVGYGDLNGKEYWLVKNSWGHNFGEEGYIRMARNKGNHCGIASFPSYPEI

This test has as its target Recombinant human cathepsin S (CatS) (Homo sapiens, UniProt P25774). Nature of the test: biochemical.

Broadly, the IC50 is the concentration that gives 50% inhibition.

Take `CS(=O)(=O)N1CCc2c(c(-c3ccc(C(F)(F)F)c(SCCN4CCC(F)(F)C4)c3)nn2CC(O)CN2CCC(N3CCCC3=O)CC2)C1` (stereo not drawn) [Example 769, 1-[1-(3-{3-[3-{[2-(3,3-Difluoropyrrolidin-1-yl)ethyl]sulfanyl}-4-(trifluoromethyl)phenyl]-5-(methylsulfonyl)-4,5,6,7-tetrahydro-1H-pyrazolo[4,3-c]pyridin-1-yl}-2-hydroxypropyl)piperidin-4-yl]pyrrolidin-2-one]: the half-inhibitory concentration (IC50) came out at 35 nM.
The same measure for `CS(=O)(=O)N1CCc2c(c(-c3ccc(C(F)(F)F)c(SCCN4CCC(F)(F)C4)c3)nn2CC(O)CN2CCC(O)CC2)C1` (stereo not drawn) [Example 514, 1-(3-{3-[3-{[2-(3,3-Difluoropyrrolidin-1-yl)ethyl]sulfanyl}-4-(trifluoromethyl)phenyl]-5-(methylsulfonyl)-4,5,6,7-tetrahydro-1H-pyrazolo[4,3-c]pyridin-1-yl}-2-hydroxypropyl)piperidin-4-ol]: 230 nM; for `O=C(CSc1cc(-c2nn(CC(O)CN3CCC4CCCCC4C3)c3c2CNCC3)ccc1C(F)(F)F)N1CCCC1` (stereo not drawn) [Example 316, 1-(Octahydroisoquinolin-2(1H)-yl)-3-(3-{3-[(2-oxo-2-pyrrolidin-1-ylethyl)sulfanyl]-4-(trifluoromethyl)phenyl}-4,5,6,7-tetrahydro-1H-pyrazolo[4,3-c]pyridin-1-yl)propan-2-ol]: 2540 nM; for `CC(=O)N1CCN(CCSc2cc(-c3nn(CC(O)CN4CCC(c5ccncc5)CC4)c4c3CN(S(C)(=O)=O)CC4)ccc2C(F)(F)F)CC1` (stereo not drawn) [Example 828, 1-{3-[3-{[2-(4-Acetylpiperazin-1-yl)ethyl]sulfanyl}-4-(trifluoromethyl)phenyl]-5-(methylsulfonyl)-4,5,6,7-tetrahydro-1H-pyrazolo[4,3-c]pyridin-1-yl}-3-(4-pyridin-4-ylpiperidin-1-yl)propan-2-ol]: 110 nM.
In the case of `O=C(CO)NC1CCN(C[C@H](O)Cn2nc(-c3ccc(C(F)(F)F)c(SCCN4CCC(F)CC4)c3)c3c2CCNC3)CC1` [Example 375, N-{1-[(2S)-3-{3-[3-{[2-(4-Fluoropiperidin-1-yl)ethyl]sulfanyl}-4-(trifluoromethyl)phenyl]-4,5,6,7-tetrahydro-1H-pyrazolo[4,3-c]pyridin-1-yl}-2-hydroxypropyl]piperidin-4-yl}-2-hydroxyacetamide], the IC50 is 1360 nM.
With `CC1(C)CCN(C[C@H](O)Cn2nc(-c3ccc(C(F)(F)F)c(SCCN4CCCC(F)C4)c3)c3c2CCN(S(C)(=O)=O)C3)CC1` (stereo partly drawn) [Example 559, (2S)-1-(4,4-Dimethylpiperidin-1-yl)-3-{3-[3-{[2-(3-fluoropiperidin-1-yl)ethyl]sulfanyl}-4-(trifluoromethyl)phenyl]-5-(methylsulfonyl)-4,5,6,7-tetrahydro-1H-pyrazolo[4,3-c]pyridin-1-yl}propan-2-ol], the IC50 stood at 250 nM.
Consider `CC(=O)NC1CCN(C[C@H](O)Cn2nc(-c3ccc(C(F)(F)F)c(SCCN4CCC(F)(F)CC4)c3)c3c2CCN(S(C)(=O)=O)C3)CC1` [Example 720, N-{1-[(2S)-3-{3-[3-{[2-(4,4-Difluoropiperidin-1-yl)ethyl]sulfanyl}-4-(trifluoromethyl)phenyl]-5-(methylsulfonyl)-4,5,6,7-tetrahydro-1H-pyrazolo[4,3-c]pyridin-1-yl}-2-hydroxypropyl]piperidin-4-yl}acetamide], for which the IC50 was 35 nM.
For `CC(C)(C)C1CCN(C[C@H](O)Cn2nc(-c3ccc(C(F)(F)F)c(SCCN4CCC(F)(F)CC4)c3)c3c2CCN(S(C)(=O)=O)C3)CC1` [Example 213, (2S)-1-{3-[3-{[2-(4,4-Difluoropiperidin-1-yl)ethyl]sulfanyl}-4-(trifluoromethyl)phenyl]-5-(methylsulfonyl)-4,5,6,7-tetrahydro-1H-pyrazolo[4,3-c]pyridin-1-yl}-3-[4-(1,1-dimethylethyl)piperidin-1-yl]propan-2-ol], the IC50 worked out at 30 nM.
In the case of `CN1CCc2c(c(-c3ccc(C(F)(F)F)c(SCCN4CCCC4)c3)nn2C[C@@H](O)CN2CCC(N3C[C@H](O)CC3=O)CC2)C1` [Example 420, (4R)-4-Hydroxy-1-{1-[(2S)-2-hydroxy-3-(5-methyl-3-{3-[(2-pyrrolidin-1-ylethyl)sulfanyl]-4-(trifluoromethyl)phenyl}-4,5,6,7-tetrahydro-1H-pyrazolo[4,3-c]pyridin-1-yl)propyl]piperidin-4-yl}pyrrolidin-2-one], the IC50 amounted to 8080 nM.
The figure for `CS(=O)(=O)N1CCc2c(c(-c3ccc(C(F)(F)F)c(SCC(=O)Nc4ccc(-c5ccccc5)cc4)c3)nn2CC(O)CN2CCC(N3CCCC3=O)CC2)C1` (stereo not drawn) [Example 66, N-Biphenyl-4-yl-2-[5-(1-{2-hydroxy-3-[4-(2-oxo-pyrrolidin-1-yl)-piperidin-1-yl]-propyl}-5-methanesulfonyl-4,5,6,7-tetrahydro-1H-pyrazolo[4,3-c]pyridin-3-yl)-2-trifluoromethyl-phenylsulfanyl]-acetamide] is 1100 nM; for `O=C(c1ccco1)N1CCc2c(c(-c3ccc(C(F)(F)F)c(SCCN4CCCCC4)c3)nn2CC(O)CN2CCC(N3CCCC3=O)CC2)C1` (stereo not drawn) [Example 247, 1-(1-{3-[5-(Furan-2-ylcarbonyl)-3-{3-[(2-piperidin-1-ylethyl)sulfanyl]-4-(trifluoromethyl)phenyl}-4,5,6,7-tetrahydro-1H-pyrazolo[4,3-c]pyridin-1-yl]-2-hydroxypropyl}piperidin-4-yl)pyrrolidin-2-one] it is 90 nM; for `CC1CCN(CCSc2cc(-c3nn(C[C@@H](O)CN4CCOC[C@@H]4C)c4c3CN(S(C)(=O)=O)CC4)ccc2C(F)(F)F)CC1` [Example 456, (2S)-1-[(3S)-3-Methylmorpholin-4-yl]-3-{3-[3-{[2-(4-methylpiperidin-1-yl)ethyl]sulfanyl}-4-(trifluoromethyl)phenyl]-5-(methylsulfonyl)-4,5,6,7-tetrahydro-1H-pyrazolo[4,3-c]pyridin-1-yl}propan-2-ol] it is 410 nM.
Consider `CS(=O)(=O)N1CCc2c(c(-c3ccc(C(F)(F)F)c(SCC(=O)N4CCOCC4)c3)nn2CCCN2CCC(N3CCCC3)CC2)C1` [Example 110, 2-(5-{5-Methanesulfonyl-1-[3-(4-pyrrolidin-1-yl-piperidin-1-yl)-propyl]-4,5,6,7-tetrahydro-1H-pyrazolo[4,3-c]pyridin-3-yl}-2-trifluoromethyl-phenylsulfanyl)-1-morpholin-4-yl-ethanone], for which the IC50 amounted to 400 nM.
The same measure for `CS(=O)(=O)N1CCc2c(c(-c3ccc(C(F)(F)F)c(SCC(=O)N4CCCC(F)C4)c3)nn2CCCN2CCC(N3CCCC3=O)CC2)C1` (stereo not drawn) [Example 82, 1-{1-[3-(3-{3-[2-(3-Fluoro-piperidin-1-yl)-2-oxo-ethylsulfanyl]-4-trifluoromethyl-phenyl}-5-methanesulfonyl-4,5,6,7-tetrahydro-pyrazolo[4,3-c]pyridin-1-yl)-propyl]-piperidin-4-yl}-pyrrolidin-2-one]: 200 nM; for `CC(=O)N1CCc2c(c(-c3ccc(C(F)(F)F)c(SCCN4CCCCC4)c3)nn2CC(O)CN2CCCCC2)C1` (stereo not drawn) [Example 245, 1-(5-Acetyl-3-{3-[(2-piperidin-1-ylethyl)sulfanyl]-4-(trifluoromethyl)phenyl}-4,5,6,7-tetrahydro-1H-pyrazolo[4,3-c]pyridin-1-yl)-3-piperidin-1-ylpropan-2-ol]: 800 nM.
For the molecule `CS(=O)(=O)N1CCc2c(c(-c3ccc(C(F)(F)F)c(SCCN4CCCC(F)(F)C4)c3)nn2C[C@@H](O)CN2CCCCCC2)C1` [Example 574, (2S)-1-Azepan-1-yl-3-{3-[3-{[2-(3,3-difluoropiperidin-1-yl)ethyl]sulfanyl}-4-(trifluoromethyl)phenyl]-5-(methylsulfonyl)-4,5,6,7-tetrahydro-1H-pyrazolo[4,3-c]pyridin-1-yl}propan-2-ol], the IC50 amounted to 130 nM.
Turning to `CCS(=O)(=O)N1CCc2c(c(-c3ccc(C(F)(F)F)c(SCCN4CCCCC4)c3)nn2CC(O)CN2CCC(N3CCCC3=O)CC2)C1` (stereo not drawn) [Example 235, 1-(1-{3-[5-(Ethylsulfonyl)-3-{3-[(2-piperidin-1-ylethyl)sulfanyl]-4-(trifluoromethyl)phenyl}-4,5,6,7-tetrahydro-1H-pyrazolo[4,3-c]pyridin-1-yl]-2-hydroxypropyl}piperidin-4-yl)pyrrolidin-2-one], the IC50 was determined as 40 nM.
As to `CC(=O)N1CCN(CCCn2nc(-c3ccc(C(F)(F)F)c(SCCN4CCCCC4)c3)c3c2CCN(S(C)(=O)=O)C3)CC1` [Example 56, 1-[4-(3-{5-Methanesulfonyl-3-[3-(2-piperidin-1-yl-ethylsulfanyl)-4-trifluoromethyl-phenyl]-4,5,6,7-tetrahydro-pyrazolo[4,3-c]pyridin-1-yl}-propyl)-piperazin-1-yl]-ethanone], the IC50 was 610 nM.
For the molecule `Cn1ccnc1C(=O)N1CCc2c(c(-c3ccc(C(F)(F)F)c(SCCN4CCC(F)CC4)c3)nn2C[C@@H](O)CN2CCCCC2)C1` [Example 569, (2S)-1-{3-[3-{[2-(4-Fluoropiperidin-1-yl)ethyl]sulfanyl}-4-(trifluoromethyl)phenyl]-5-[(1-methyl-1H-imidazol-2-yl)carbonyl]-4,5,6,7-tetrahydro-1H-pyrazolo[4,3-c]pyridin-1-yl}-3-piperidin-1-ylpropan-2-ol], the IC50 is 570 nM.
`CS(=O)(=O)N1CCc2c(c(-c3ccc(C(F)(F)F)c(SCCN4CCC(F)(F)CC4)c3)nn2C[C@@H](O)CN2CCC(C(N)=O)CC2)C1` [Example 667, 1-[(2S)-3-{3-[3-{[2-(4,4-Difluoropiperidin-1-yl)ethyl]sulfanyl}-4-(trifluoromethyl)phenyl]-5-(methylsulfonyl)-4,5,6,7-tetrahydro-1H-pyrazolo[4,3-c]pyridin-1-yl}-2-hydroxypropyl]piperidine-4-carboxamide]: the 50% inhibitory concentration (IC50) came out at 85 nM.
The figure for `CS(=O)(=O)NC1CCN(CC(O)Cn2nc(-c3ccc(C(F)(F)F)c(SCC(=O)N4CCOCC4)c3)c3c2CCNC3)CC1` (stereo not drawn) [Example 460, N-{1-[2-Hydroxy-3-(3-{3-[(2-morpholin-4-yl-2-oxoethyl)sulfanyl]-4-(trifluoromethyl)phenyl}-4,5,6,7-tetrahydro-1H-pyrazolo[4,3-c]pyridin-1-yl)propyl]piperidin-4-yl}methanesulfonamide] is 2400 nM.
